# How the values were obtained:
# [1] = test system: dK (dL5(E52K)); assay: Fluorescence quantum yield of dye/FAP complex; assay type: biochemical; conditions: relative to MG-2p/dL5; 2, 1, 0.75, 0.5 μM dye with 10× FAP
# [2] = test system: HEK293 cells expressing NLS-dL5**; assay: Cell permeability testing: labeling of nuclear localized FAP; assay type: cell-based
# [3] = test system: dL5**; conditions: relative to MG-2p/dL5; 2, 1, 0.75, 0.5 μM dye with 10× FAP
# [4] = test system: HEK293 cells expressing dL5**-TM; conditions: flow cytometry, 100 nM dye, normalized to MG-nBu
substance,measurement,setting,value
MG-PEG3500-HexCl [DAPA],"quantum yield, Φf, dK",[1],0.05
same,labeling of nuclear / intracellular FAP (microscopy),"[2]; 500 nM dye, 15 min, NLS-dL5** HEK293 cells",cannot label intracellular FAP
same,cell permeant,[2]; HEK293 cells,effectively cell impermeant and no
same,"quantum yield, Φf, dL5**",[3],0.11
same,dL5**-TM labeling fluorescence relative to MG-nBu,[4],40%

# — paper PMC8796707 (ACS chemical biology, 2020)
